Measured values: US7001983B1, “Antipathogenic synthetic peptides and compositions comprising them” (priority 1997, dated 2006)
Values joined by “and” are separate entries in the source; they are usually repeats but may differ in a detail not shown here. Equal values may be shown once.

How the values were obtained:
Escherichia coli D21 = settings: 100% inhibition of growth after 18–20 h
[1] = tested on: Bacillus subtilis ATCC 6051; format: cell-based; settings: 100% inhibition of growth after 18–20 h
Bacillus megaterium Bm11 = settings: 100% inhibition of growth after 18–20 h
[2] = tested on: Salmonella typhimurium LT2; experiment: Antibacterial activity (MIC), growth inhibition in LB medium; format: cell-based; settings: 100% inhibition of growth after 18–20 h
Source text: (viii) Antibacterial activity of the peptides.

[3] = tested on: Pseudomonas aeruginosa ATCC 27853; settings: 100% inhibition of growth after 18–20 h
[4] = tested on: Acinetobacter calcoaceticus Ac11; format: cell-based; settings: 100% inhibition of growth after 18–20 h
[5] = tested on: Candida albicans (IP886-65); experiment: Antifungal activity (MIC); format: cell-based; settings: 100% inhibition of growth after 48 h at 30° C.
Source text: (§1) The fungi used were: Candida albicans (IP886-65) and Cryptococcus neoformans (IP960-67).

[6] = tested on: Cryptococcus neoformans (IP960-67); experiment: Antifungal activity (MIC); format: cell-based; settings: 100% inhibition of growth after 48 h at 30° C.
Source text: as §1

[7] = tested on: Micrococcus Iuteus ATCC 9341; experiment: Antibacterial activity (MIC), growth inhibition in LB medium; settings: 100% inhibition of growth after 18–20 h
[8] = tested on: human red blood cells (hRBC); experiment: Hemolysis of human red blood cells; settings: up to 50 μM

SMILES | Minimal Inhibitory Concentration E. coli (D21) (Escherichia coli D21) [µM] | Minimal Inhibitory Concentration B. subtilis (ATCC 6051) [1] | Minimal Inhibitory Concentration B. megaterium (Bm11) (Bacillus megaterium Bm11) [µM] | Minimal Inhibitory Concentration S. typhimurium (LT2) [2] [µM] | Minimal Inhibitory Concentration P. aeruginosa (ATCC 27853) [3] [µM] | Minimal Inhibitory Concentration A. calcoaceticus (Ac11) [4] [µM] | Minimal Inhibitory Concentration Candida albicans (IP886-65) [5] [µM] | Minimal Inhibitory Concentration Cryptococcus neoformans (IP960-67) [6] [µM] | Minimal Inhibitory Concentration M. luteus (ATCC 9341) [7] [µM] | hemolytic activity up to the maximum concentration tested [8]
CC[C@H](C)[C@H](NC(=O)CN)C(=O)NCC(=O)N[C@@H](C)C(=O)N[C@H](C(=O)N[C@@H](CC(C)C)C(=O)N[C@@H](CCCCN)C(=O)N[C@H](C(=O)N[C@@H](CC(C)C)C(=O)N[C@H](C(=O)N[C@H](C(=O)NCC(=O)N[C@@H](CC(C)C)C(=O)N1CCC[C@H]1C(=O)N[C@@H](C)C(=O)N[C@@H](CC(C)C)C(=O)N[C@H](C(=O)N[C@@H](CO)C(=O)N[C@@H](Cc1c[nH]c2ccccc12)C(=O)N[C@H](C(=O)N[C@@H](CCCCN)C(=O)N[C@@H](CCCNC(=N)N)C(=O)N[C@@H](CCCCN)C(=O)N[C@@H](CCCNC(=N)N)C(=O)N[C@@H](CCC(N)=O)C(=O)N[C@@H](CCC(N)=O)C(N)=O)[C@@H](C)CC)[C@@H](C)CC)[C@@H](C)O)[C@@H](C)O)C(C)C)C(C)C [Melittin, reference compound] | 5 | 0.6 µM and 0.4 µM | 0.3 | – | – | – | – | – | – | –
CC[C@H](C)[C@H](NC(=O)[C@H](CCCCN)NC(=O)[C@H]1CCCN1C(=O)[C@@H](NC(=O)[C@H](CC(C)C)NC(=O)[C@H](C)NC(=O)[C@H](Cc1ccccc1)NC(=O)[C@H](Cc1ccccc1)NC(=O)CN)[C@@H](C)CC)C(=O)N[C@H](C(=O)N[C@@H](CO)C(=O)N[C@@H](CO)C(=O)N1CCC[C@H]1C(=O)N[C@@H](CC(C)C)C(=O)N[C@@H](Cc1ccccc1)C(=O)N[C@@H](CCCCN)C(=O)N[C@H](C(=O)N[C@H](CC(C)C)C(=O)N[C@H](CC(C)C)C(=O)N[C@@H](CO)C(=O)N[C@@H](C)C(=O)N[C@H](C(=O)O)C(C)C)[C@@H](C)O)[C@@H](C)CC [Peptide 3, [D]P^7L^18L^19[1-22]-par] | 130 | – | 30 | >130 | >130 | >130 | – | – | – | –
CC[C@H](C)[C@H](NC(=O)[C@H](CCCCN)NC(=O)[C@H]1CCCN1C(=O)[C@@H](NC(=O)[C@H](CC(C)C)NC(=O)[C@H](C)NC(=O)[C@H](Cc1ccccc1)NC(=O)[C@H](Cc1ccccc1)NC(=O)CN)[C@@H](C)CC)C(=O)N[C@H](C(=O)N[C@@H](CO)C(=O)N[C@@H](CO)C(=O)N1CCC[C@H]1C(=O)N[C@@H](CC(C)C)C(=O)N[C@@H](Cc1ccccc1)C(=O)N[C@@H](CCCCN)C(=O)N[C@H](C(=O)N[C@@H](CC(C)C)C(=O)N[C@@H](CC(C)C)C(=O)N[C@@H](CO)C(=O)N[C@@H](C)C(=O)N[C@H](C(=O)NCC(=O)N[C@@H](CO)C(=O)N[C@@H](C)C(=O)N[C@@H](CC(C)C)C(=O)N[C@@H](CO)C(=O)N[C@@H](CO)C(=O)N[C@@H](CO)C(=O)NCC(=O)NCC(=O)N[C@@H](CCC(N)=O)C(=O)N[C@@H](CCC(=O)O)C(=O)O)C(C)C)[C@@H](C)O)[C@@H](C)CC [Peptide 13, [D]P^7-par] | 30 | – | 3.5 | >100 | >100 | 15 | – | – | – | –
CC[C@H](C)[C@H](NC(=O)[C@H](CCCCN)NC(=O)[C@@H]1CCCN1C(=O)[C@@H](NC(=O)[C@H](CC(C)C)NC(=O)[C@H](C)NC(=O)[C@H](Cc1ccccc1)NC(=O)[C@H](Cc1ccccc1)NC(=O)CN)[C@@H](C)CC)C(=O)N[C@H](C(=O)N[C@@H](CO)C(=O)N[C@@H](CO)C(=O)N1CCC[C@H]1C(=O)N[C@@H](CC(C)C)C(=O)N[C@@H](Cc1ccccc1)C(=O)N[C@@H](CCCCN)C(=O)N[C@H](C(=O)N[C@H](CC(C)C)C(=O)N[C@H](CC(C)C)C(=O)N[C@@H](CO)C(=O)N[C@@H](C)C(=O)N[C@H](C(=O)NCC(=O)N[C@@H](CO)C(=O)N[C@@H](C)C(=O)N[C@@H](CC(C)C)C(=O)N[C@@H](CO)C(=O)N[C@@H](CO)C(=O)N[C@@H](CO)C(=O)NCC(=O)NCC(=O)N[C@@H](CCC(N)=O)C(=O)N[C@@H](CCC(=O)O)C(=O)O)C(C)C)[C@@H](C)O)[C@@H](C)CC [Peptide 15, [D]L^18L^19-par] | 15 | – | 1.7 | 60 | 60 | 3.5 | – | – | – | –
CC[C@H](C)[C@H](NC(=O)[C@H](CCCCN)NC(=O)[C@H]1CCCN1C(=O)[C@@H](NC(=O)[C@H](CC(C)C)NC(=O)[C@H](C)NC(=O)[C@H](Cc1ccccc1)NC(=O)[C@H](Cc1ccccc1)NC(=O)CN)[C@@H](C)CC)C(=O)N[C@H](C(=O)N[C@@H](CO)C(=O)N[C@@H](CO)C(=O)N1CCC[C@H]1C(=O)N[C@@H](CC(C)C)C(=O)N[C@@H](Cc1ccccc1)C(=O)N[C@@H](CCCCN)C(=O)N[C@H](C(=O)N[C@H](CC(C)C)C(=O)N[C@H](CC(C)C)C(=O)N[C@@H](CO)C(=O)N[C@@H](C)C(=O)N[C@H](C(=O)NCC(=O)N[C@@H](CO)C(=O)N[C@@H](C)C(=O)N[C@@H](CC(C)C)C(=O)N[C@@H](CO)C(=O)N[C@@H](CO)C(=O)N[C@@H](CO)C(=O)NCC(=O)NCC(=O)N[C@@H](CCC(N)=O)C(=O)N[C@@H](CCC(=O)O)C(=O)O)C(C)C)[C@@H](C)O)[C@@H](C)CC [Peptide 16, [D]P^7L^18L^19-par] | 100 | – | 50 | >100 | >100 | 100 | 120 | 150 | – | –
CC[C@@H](C)[C@@H](NC(=O)[C@H](CC(C)C)NC(=O)[C@H](C)NC(=O)[C@@H]1CCCN1C(=O)[C@H](CC(C)C)NC(=O)CNC(=O)[C@@H](NC(=O)[C@@H](NC(=O)[C@H](CC(C)C)NC(=O)[C@H](NC(=O)[C@H](CCCCN)NC(=O)[C@H](CC(C)C)NC(=O)[C@H](NC(=O)[C@H](C)NC(=O)CNC(=O)[C@@H](NC(=O)CN)[C@@H](C)CC)C(C)C)C(C)C)[C@@H](C)O)[C@@H](C)O)C(=O)N[C@@H](CO)C(=O)N[C@@H](Cc1c[nH]c2ccccc12)C(=O)N[C@H](C(=O)N[C@H](CCCCN)C(=O)N[C@@H](CCCNC(=N)N)C(=O)N[C@@H](CCCCN)C(=O)N[C@@H](CCCNC(=N)N)C(=O)N[C@@H](CCC(N)=O)C(=O)N[C@@H](CCC(N)=O)C(N)=O)[C@@H](C)CC [Peptide 18, [D]-V^5V^8I^17K^21-mel] | 12 | 3.5 µM | 0.8 | – | – | 12 | – | – | 25 | practically devoid of hemolytic activity
